Tests used:
ABCG2 = ABCG2 (Homo sapiens, UniProt Q9UNQ0)
Method: Methods: For constructing MDCK-II cells expressing human ABCG2 or green fluorescent protein (GFP), MDCK-II cells were infected with recombinant adenoviruses containing human ABCG2 or GFP cDNA at 48 h prior to the experiments. ABCG2 or GFP-transduced cells were preincubated in prewarmed transport buffer for 15 min. Subsequently, [^3H]-mitoxantrone (MTX) was added in transport buffer to apical compartments. Accumulation of radiolabeled substrates was allowed for 2 h at 37° C. with or without an appropriate concentration of pharmaceutical excipients, 20 μM of GF120918 or 5 μM of PSC833. The reactions were arrested by washing cells with ice-cold transport buffer. Cells were solubilized and then the lysates were transferred to a liquid scintillation counter for measurement of radioactivity.
To abolish the influence of endogenous P-gp, PSC833 (P-gp inhibitor) was added during the incubation for 2 h, except that in the samples treated with GF120918 (a shared ABCG2 and P-gp inhibitor) no PSC833 was added.
The inhibitory effect of excipients on ABCG2 was further characterized in an intracellular accumulation study. MDCK-II cells overexpressing ABCG2 (BCRP MDCK-II) and, as controls, MDCK-II cells overexpressing green fluorescence protein (GFP) (GFP MDCK-II) were prepared. Mitoxantrone was used as the substrate. Intracellular mitoxantrone accumulation in the presence or absence of excipients was determined.
To discover the excipients that can inhibit ABCG2, we performed an intracellular accumulation study using BCRP MDCK-II and GFP MDCK-II cells in the absence or presence of excipients. Mitoxantrone was used as the substrate. To abolish the effect of endogenous P-gp, this experiment was performed in the presence of PSC833. […] All of the excipients were used below their cmc, because above their cmc, excipients form micelles that can interact with the substrate, and as a consequence the effective concentration of mitoxantrone in the experimental medium can decrease.

By UniProt entry, the sequences of proteins in these tests, tags left out. Where a name states a change or a piece, a line headed by the entry shows the natural chain unless it says otherwise.
UniProt Q9UNQ0: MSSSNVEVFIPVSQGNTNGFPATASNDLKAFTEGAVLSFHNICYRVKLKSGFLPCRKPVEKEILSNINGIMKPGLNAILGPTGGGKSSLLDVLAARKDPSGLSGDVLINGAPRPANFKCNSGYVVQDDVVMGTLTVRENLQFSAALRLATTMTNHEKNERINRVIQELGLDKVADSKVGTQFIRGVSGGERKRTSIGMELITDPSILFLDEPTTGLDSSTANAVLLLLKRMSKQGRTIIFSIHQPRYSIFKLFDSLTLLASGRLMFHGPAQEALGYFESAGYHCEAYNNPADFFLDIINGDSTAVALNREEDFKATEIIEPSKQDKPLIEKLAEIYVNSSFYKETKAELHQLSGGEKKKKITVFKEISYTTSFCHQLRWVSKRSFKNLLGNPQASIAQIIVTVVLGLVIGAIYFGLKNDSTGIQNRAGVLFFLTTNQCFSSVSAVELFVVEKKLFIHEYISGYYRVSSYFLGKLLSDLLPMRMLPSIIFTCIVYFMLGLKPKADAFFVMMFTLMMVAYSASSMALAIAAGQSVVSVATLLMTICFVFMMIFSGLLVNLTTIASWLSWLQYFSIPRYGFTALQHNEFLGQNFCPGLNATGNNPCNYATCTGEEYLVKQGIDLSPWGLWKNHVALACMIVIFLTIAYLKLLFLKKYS
UniProt P08183, whole entry: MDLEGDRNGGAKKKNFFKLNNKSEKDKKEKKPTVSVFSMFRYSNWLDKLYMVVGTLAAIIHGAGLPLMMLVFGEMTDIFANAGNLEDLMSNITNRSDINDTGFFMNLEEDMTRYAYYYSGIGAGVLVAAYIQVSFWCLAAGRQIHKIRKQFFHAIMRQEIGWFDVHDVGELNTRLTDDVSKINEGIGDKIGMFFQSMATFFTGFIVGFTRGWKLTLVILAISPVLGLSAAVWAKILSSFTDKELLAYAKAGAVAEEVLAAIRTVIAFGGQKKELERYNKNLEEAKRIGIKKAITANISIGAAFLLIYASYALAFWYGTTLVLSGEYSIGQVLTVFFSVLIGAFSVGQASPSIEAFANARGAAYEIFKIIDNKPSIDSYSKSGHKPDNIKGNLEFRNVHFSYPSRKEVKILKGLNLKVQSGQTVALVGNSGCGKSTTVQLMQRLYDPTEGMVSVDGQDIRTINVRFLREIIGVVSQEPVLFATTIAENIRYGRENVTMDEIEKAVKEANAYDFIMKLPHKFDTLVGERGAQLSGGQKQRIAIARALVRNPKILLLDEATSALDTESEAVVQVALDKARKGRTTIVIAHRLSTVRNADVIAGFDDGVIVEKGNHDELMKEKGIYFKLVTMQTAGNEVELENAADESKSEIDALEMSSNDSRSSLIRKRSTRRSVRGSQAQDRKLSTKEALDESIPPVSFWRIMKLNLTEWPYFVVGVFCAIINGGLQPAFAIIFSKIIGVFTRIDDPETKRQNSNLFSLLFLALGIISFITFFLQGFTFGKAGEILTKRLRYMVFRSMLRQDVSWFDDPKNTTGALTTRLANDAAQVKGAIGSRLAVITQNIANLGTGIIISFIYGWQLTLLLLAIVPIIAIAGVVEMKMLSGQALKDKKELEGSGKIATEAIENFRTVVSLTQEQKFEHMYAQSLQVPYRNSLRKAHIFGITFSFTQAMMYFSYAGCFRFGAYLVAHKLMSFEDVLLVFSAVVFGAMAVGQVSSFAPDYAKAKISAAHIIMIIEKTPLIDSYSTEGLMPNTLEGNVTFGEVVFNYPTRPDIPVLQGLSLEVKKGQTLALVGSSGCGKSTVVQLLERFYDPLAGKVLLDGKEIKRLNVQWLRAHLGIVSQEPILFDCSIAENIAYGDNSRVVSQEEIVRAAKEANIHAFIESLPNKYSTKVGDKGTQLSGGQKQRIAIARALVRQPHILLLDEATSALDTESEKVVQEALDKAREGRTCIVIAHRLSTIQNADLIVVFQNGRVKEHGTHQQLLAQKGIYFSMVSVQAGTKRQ

P-gp = P-gp (Homo sapiens, UniProt P08183)
Source text: Moreover, to investigate the inhibitory effect of excipients on P-gp, we also performed an intracellular accumulation study for 15 excipients using P-gp MDCK-II cells. Mitoxantrone was again used as the substrate.

Substance	inhibition of ABCG2 in the intact cell assay (ABCG2)	mitoxantrone accumulation in P-gp MDCK-II cells (in words) (P-gp)
Polyoxyethylene 40 stearate [Polyoxyl 40 stearate]	did not inhibit ABCG2	increased
Polyoxyethyleneglyceroltrihydroxystearate [Polyoxyl 40 hydrogenated castor oil]	did not inhibit ABCG2	–
D-α-tocopheryl polyethylene glycol 1000 succinate [Vitamin E TPGS]	did not inhibit ABCG2	increased
